Test results as given in ChEMBL document CHEMBL1240482, “Synthesis and antiproliferative evaluation of certain indeno[1,2-c]quinoline derivatives. Part 2” (J Med Chem, 2010).

Target: T1, DNA topoisomerase 1 (Homo sapiens, UniProt P11387)
T1 sequence (P11387 whole entry): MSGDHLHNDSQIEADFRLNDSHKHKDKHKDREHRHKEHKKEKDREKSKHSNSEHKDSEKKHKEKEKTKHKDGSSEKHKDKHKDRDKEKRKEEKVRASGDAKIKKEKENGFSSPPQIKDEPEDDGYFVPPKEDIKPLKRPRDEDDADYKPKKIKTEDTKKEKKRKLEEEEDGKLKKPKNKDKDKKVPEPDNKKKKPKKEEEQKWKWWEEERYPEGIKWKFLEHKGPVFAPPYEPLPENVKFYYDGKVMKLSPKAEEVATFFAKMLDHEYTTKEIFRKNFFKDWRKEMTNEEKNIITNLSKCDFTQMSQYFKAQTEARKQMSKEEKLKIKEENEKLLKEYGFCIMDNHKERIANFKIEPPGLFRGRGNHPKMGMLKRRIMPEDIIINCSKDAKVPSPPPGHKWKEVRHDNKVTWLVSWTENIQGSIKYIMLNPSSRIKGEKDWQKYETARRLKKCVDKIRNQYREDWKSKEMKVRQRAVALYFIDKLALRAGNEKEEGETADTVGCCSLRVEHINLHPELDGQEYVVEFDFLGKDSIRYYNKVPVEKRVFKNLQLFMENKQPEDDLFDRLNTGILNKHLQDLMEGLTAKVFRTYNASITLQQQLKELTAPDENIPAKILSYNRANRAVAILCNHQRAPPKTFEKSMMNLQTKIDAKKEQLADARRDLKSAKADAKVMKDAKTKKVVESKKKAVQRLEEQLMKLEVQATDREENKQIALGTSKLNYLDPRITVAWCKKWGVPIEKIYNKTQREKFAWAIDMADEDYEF
Test: Inhibition of human topoisomerase 1 assessed as decrease in pBR322 mobility on agarose gel by electrophoresis
In short: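 Enzyme preincubated with compound before DNA addition; reaction run 30 min at 37 °C and stopped with SDS. Products resolved on 1% agarose, stained with ethidium bromide, quantified by densitometry.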

- IC50: 20 µM
SMILES: COc1cccc2c1C(=O)c1c(O)c3c(c(O)c1C2=O)C[C@@](O)(C(=O)CO)C[C@@H]3O[C@H]1C[C@H](N)[C@H](O)[C@H](C)O1 [DOXORUBICIN]
